{"source": "patent EP4512427A1", "about": "“ANTIBODY-DRUG CONJUGATES BASED ON MOLECULAR GLUE DEGRADERS AND USES THEREOF” (Mablink Bioscience, priority 2023, dated 2025)", "format_in_all_cases": "cell-based, human", "key": {"[1]": {"tested_on": "MDA-MB-231 HER2-negative cell line", "assay": "In vitro bystander cell killing assay, single culture control", "settings": "MDA-MB-231 alone, 25 nM ADC, 6 days", "description": "(§1) Capacity of trastuzumab (anti-HER2)-based ADC incorporating the lead compound 2384 to exert in vitro bystander killing properties was assessed in a co-culture cell killing assay. BT-474 (HER2-positive) and MDA-MB-231 (HER2-negative) cells were seeded in single or co-culture (2:1 ratio respectively) in 96-well plate at final density of 10 000 cells per well and incubated overnight at 37 °C under a 5% CO2 atmosphere. Cells were then treated with 25 nM of Enhertu® (positive control ADC know to exert bystander cell killing) or TRA-VA-2384 for 6 days. Cells were then collected by trypsinization and transferred into a round-bottom 96-well plate suitable for high-throughput flow cytometry. Cells were washed three times with PBS, resuspended in 50 µL PBS, and incubated with an anti-HER2 APC-conjugated antibody (BD Bioscience, Cat#340554) for 30 min at 4°C in the dark. Analysis was performed using a BD Fortessa flow cytometer controlled by BD FACSDiva software (BD Bioscience) and data were analyzed using FlowJo software (BD Bioscience)."}, "[2]": {"tested_on": "BT-474 HER2-positive cell line", "assay": "In vitro bystander cell killing assay, single culture control", "settings": "BT-474 alone, 25 nM ADC, 6 days", "description": "as §1"}, "[3]": {"tested_on": "BT-474 (HER2-positive) and MDA-MB-231 (HER2-negative) cells", "assay": "In vitro bystander cell killing assay, co-culture", "settings": "co-culture 2:1, 25 nM ADC, 6 days", "description": "as §1"}}, "data": [{"substance": "Enhertu", "values": [{"measurement": "cytotoxicity in single culture", "setting": "[1]", "result": "not non-specifically cytotoxic"}, {"measurement": "cytotoxicity in single culture", "setting": "[2]", "result": "cytotoxic to the BT-474 HER2-positive cell line"}, {"measurement": "bystander cell killing", "setting": "[3]", "result": "able to exert bystander cell killing"}]}]}
